Protein sequences, listed by entry. Tags and fused reporters are not part of them. Lines headed by an entry give the natural chain unless they say otherwise; changes in a name come on top.
UniProt O15439: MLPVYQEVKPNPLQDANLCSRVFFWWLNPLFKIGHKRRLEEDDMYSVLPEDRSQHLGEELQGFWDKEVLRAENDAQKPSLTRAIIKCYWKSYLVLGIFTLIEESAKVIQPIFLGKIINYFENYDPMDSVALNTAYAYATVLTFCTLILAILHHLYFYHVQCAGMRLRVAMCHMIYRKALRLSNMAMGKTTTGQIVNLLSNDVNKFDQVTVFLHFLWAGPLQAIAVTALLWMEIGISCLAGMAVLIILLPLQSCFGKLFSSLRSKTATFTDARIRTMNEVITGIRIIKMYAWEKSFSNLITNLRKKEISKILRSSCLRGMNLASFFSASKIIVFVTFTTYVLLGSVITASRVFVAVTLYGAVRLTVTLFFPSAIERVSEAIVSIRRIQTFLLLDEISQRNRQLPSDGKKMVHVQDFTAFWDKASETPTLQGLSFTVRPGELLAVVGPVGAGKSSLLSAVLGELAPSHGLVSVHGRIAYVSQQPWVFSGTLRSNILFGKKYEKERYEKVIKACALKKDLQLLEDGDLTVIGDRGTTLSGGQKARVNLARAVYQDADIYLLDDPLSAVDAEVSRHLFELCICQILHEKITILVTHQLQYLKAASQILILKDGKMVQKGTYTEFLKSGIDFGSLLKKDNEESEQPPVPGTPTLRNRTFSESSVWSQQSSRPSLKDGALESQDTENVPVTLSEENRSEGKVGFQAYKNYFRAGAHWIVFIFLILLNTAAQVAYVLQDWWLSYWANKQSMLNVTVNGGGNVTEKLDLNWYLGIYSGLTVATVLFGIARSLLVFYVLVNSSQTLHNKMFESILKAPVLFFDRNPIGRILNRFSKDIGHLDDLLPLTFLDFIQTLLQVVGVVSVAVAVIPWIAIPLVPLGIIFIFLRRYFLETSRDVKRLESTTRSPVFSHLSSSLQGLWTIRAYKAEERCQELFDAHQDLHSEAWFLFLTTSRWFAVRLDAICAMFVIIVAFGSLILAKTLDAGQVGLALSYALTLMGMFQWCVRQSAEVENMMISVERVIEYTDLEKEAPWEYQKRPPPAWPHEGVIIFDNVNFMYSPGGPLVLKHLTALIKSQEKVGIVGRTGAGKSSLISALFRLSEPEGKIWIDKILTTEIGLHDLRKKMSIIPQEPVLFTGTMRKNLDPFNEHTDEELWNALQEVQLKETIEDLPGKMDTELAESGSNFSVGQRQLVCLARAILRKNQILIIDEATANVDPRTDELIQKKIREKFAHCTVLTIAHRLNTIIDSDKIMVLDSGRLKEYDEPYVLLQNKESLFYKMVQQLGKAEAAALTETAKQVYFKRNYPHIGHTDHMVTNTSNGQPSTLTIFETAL

According to PMC6873218, “Functional Expression of Multidrug Resistance Protein 4 MRP4/ABCC4” (Slas Discovery, 2019):

Biological target: Multidrug resistance protein 4 (MRP4/ABCC4) (Homo sapiens, UniProt O15439)
Assay: biochemical

CN(C)C(=O)CCSC(SCCC(=O)O)c1cccc(/C=C/c2ccc3ccc(Cl)cc3n2)c1 (stereo not shown) [MK571]
IC50: 390 nM
